Tests used:
[1] = Intramuscular study in minipig for prodrugs, epinephrine pharmacokinetic profile; type: in vivo, male Yucatan miniature swine; settings: IM 2 mg/animal, up to 4 hrs
Protocol: Yucatan minipigs (n=4 males per group) were weighed and weights were recorded. The morning of the study, the vascular access port (VAP) of each animal was checked for proper functioning. Minipigs with viable VAP were removed from the home cage and placed in a holding sling. The animals were fasted overnight prior to dose administration and for the duration of PK blood collections.
All the formulations were prepared fresh on the day of dosing and maintained on wet ice until dosing. The dose was injected in the rear hind limb. Prior to administering, the plunger of the syringe was aspirated and observed for any blood that may flow into the syringe. If no blood was observed, it was verified that the needle was in proper placement, and the test articles were administered.
At each specified time-point, 6 mL of whole blood was collected into blood collection tubes containing K2EDTA as the anticoagulant and sodium metabisulfite as stabilizer. Sodium metabisulfite was at a concentration of 8.9 mM, pH 3 (60 μL/6 mL of whole blood of the 890 mM stock solution). SigmaFast (600 μL of SigmaFast 1× solution to 6 mL of whole blood) was added immediately to the tubes as the enzyme arresting agent. […]
The dose was injected in the rear hind limb. […] All blood samples were centrifuged and the resulting plasma was analyzed for epinephrine using LC-MS/MS method.

[2] = Stability in sodium metabisulfite; type: physicochemical
Text: A prodrug design can provide an alternative for the delivery of epinephrine, and indeed, for other active pharmaceutical ingredients. A prodrug can present improved hydrophobicity, better permeation, dose reduction, and enhanced speed of absorption. It can also provide alternative compositions with unique stability profiles. […] A prodrug that is not absorbed in the stomach can also avoid, minimize or eliminate the side effect of epigastric pain. Moreover, a prodrug can result in reduced adrenergic receptor binding, resulting in reduced variability of vasoconstriction and more stability. An expected disadvantage for the epinephrine prodrug approach is that it often requires conversion in the blood, can cause delay in epinephrine exposure as a function of its conversion rate, and since the molecular weight is often higher than that of the active pharmaceutical ingredient, it can also require a higher drug loading (e.g. if the prodrug is twice the molecular weight of the active pharmaceutical ingredient, it can require twice the drug loading).

[3] = IM and SC administration of L-Dipivefrin compared to Epipen, PK; type: in vivo, male Yucatan miniature swine
Protocol: Yucatan minipigs were weighed and in the morning of the study, the vascular access port (VAP) of each animal was checked for proper functioning. Minipigs with viable VAP were removed from the home cage and placed in a holding sling.
At each specified time-point, 6 mL of whole blood was collected into blood collection tubes containing anticoagulant and stabilizer. Protease inhibitor cocktail was added and the tubes were inverted several times for mixing.

Substance: Dipivefrin [L-Dipivefrin]
- sufficient plasma levels [1]: 0.5 ng/mL
- stability in sodium metabisulfite [2]: unstable
- IM vs SC vs EpiPen comparison ([3]; 0.6 mg): No apparent difference
- plasma Epinephrine levels, SC vs IM administration ([3]; 2 mg dose): higher levels of Epinephrine
- plasma epinephrine exposure (AUC) after IM and SC administrations ([3]; 0.6, 1 and 2 mg): Dose dependent effects
- DIPI AUC 0-t ([3]; IM 0.6 mg): 2.6 ng·min/mL
- DIPI Cmax (mean) ([3]; IM 0.6 mg): 0.285 ng/mL
- DIPI Tmax ([3]; IM 0.6 mg): 5 min
- DIPI AUC 0-t ([3]; IM 1 mg): 15.63 ng·min/mL
- DIPI Cmax (mean) ([3]; IM 1 mg): 0.632 ng/mL
- DIPI Tmax ([3]; IM 1 mg): 10 min
- DIPI AUC 0-t ([3]; IM 2 mg): 29.79 ng·min/mL
- DIPI Cmax (mean) ([3]; IM 2 mg): 0.882 ng/mL
- DIPI Tmax ([3]; IM 2 mg): 5 min
- dose equivalent to 0.3 mg epinephrine ([3]; IM and SC compared to Epipen): 0.6 mg
- onset of epinephrine response ([3]; IM and SC vs Epipen): very similar in both IM and SC administrations and comparable to Epipen
- DIPI AUC 0-t ([3]; SC 0.6 mg): 18.25 ng·min/mL
- DIPI Cmax (mean) ([3]; SC 0.6 mg): 0.602 ng/mL
- DIPI Tmax ([3]; SC 0.6 mg): 17 min
- DIPI AUC 0-t ([3]; SC 1 mg): 80.14 ng·min/mL
- DIPI Cmax (mean) ([3]; SC 1 mg): 2.34 ng/mL
- DIPI Tmax ([3]; SC 1 mg): 10 min
- DIPI AUC 0-t ([3]; SC 2 mg): 197.6 ng·min/mL
- DIPI Cmax (mean) ([3]; SC 2 mg): 5.2 ng/mL
- DIPI Tmax ([3]; SC 2 mg): 17 min
- conversion to Epinephrine after IM and SC administrations ([3]; all doses tested): Conversion of Dipivefrin to Epinephrine was seen
- plasma Epinephrine levels after IM and SC administrations ([3]; all doses tested except 2 mg): Comparable plasma Epinephrine levels
- dose response in AUC and Cmax for SC vs. IM ([3]; epinephrine plasma levels, statistically significant only at 2 mg): ~2.5 ×

— patent US20210128511A1, “PRODRUG COMPOSITIONS AND METHODS OF TREATMENT” (AQUESTIVE THERAPEUTICS, INC., priority 2019, published 2021)
